According to US11466024B2, “Bicylic compound acting as an inhibitor” (CHIA TAI TIANQING PHARMACEUTICAL GROUP CO., LTD., priority 2017, dated 2022):
Where two headings read alike, the source gives them in different places.

By UniProt entry, the sequences of proteins in these tests, tags left out. Residues count along the entry.
UniProt P51449, 269-508 limits assumed: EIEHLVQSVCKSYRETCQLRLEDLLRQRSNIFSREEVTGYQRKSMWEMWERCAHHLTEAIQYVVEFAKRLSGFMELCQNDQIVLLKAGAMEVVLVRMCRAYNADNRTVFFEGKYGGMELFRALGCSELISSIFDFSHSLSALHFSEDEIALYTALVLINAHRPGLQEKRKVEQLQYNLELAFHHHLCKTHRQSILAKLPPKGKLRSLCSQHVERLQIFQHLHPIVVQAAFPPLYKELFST

Target: RORC2-LBD (Homo sapiens, UniProt P51449)
Experiment: In vitro test for inhibitory activity on RORγ: TR-FRET screening (RORC2-LBD / SRC1 peptide interaction)
[1] = read-out: Value of the concentration required for 50% inhibition (EC50) of RORγ, 15 nM RORc-LBD, 200 nM SRC1 peptide, 4° C. overnight, tested form: hydrochloride

CCS(=O)(=O)c1ccc([C@H](CO)NC(=O)c2cc3c(s2)C(C(C)C)N(C[C@H]2CC[C@H](C(F)(F)F)CC2)C3)cc1 (single isomer, unassigned)
EC50 (read-out: Value of the concentration required for 50% inhibition (EC50) of RORγ, 15 nM RORc-LBD, 200 nM SRC1 peptide, 4° C. overnight, tested form: hydrochloride, listed as Example 12 (hydrochloride)): < 0.1 µM | EC50 (read-out: Value of the concentration required for 50% inhibition (EC50) of RORγ, 15 nM RORc-LBD, 200 nM SRC1 peptide, 4° C. overnight, tested form: hydrochloride, listed as Example 13 (hydrochloride)): 1 to 5 µM

CCS(=O)(=O)c1ccc([C@H](COC)NC(=O)c2cc3c(s2)C(C(C)C)N(C[C@H]2CC[C@H](C(F)(F)F)CC2)C3)cc1 (stereo partly shown)
EC50 [1]: < 0.1 µM

CCS(=O)(=O)c1ccc(CNC(=O)c2cc3c(o2)C(C(C)C)N(C[C@H]2CC[C@H](C(F)(F)F)CC2)C3)nc1 (single isomer, unassigned)
EC50 (read-out: Value of the concentration required for 50% inhibition (EC50) of RORγ, 15 nM RORc-LBD, 200 nM SRC1 peptide, 4° C. overnight, tested form: hydrochloride, listed as Example 5 (hydrochloride)): 1 to 5 µM | EC50 (read-out: Value of the concentration required for 50% inhibition (EC50) of RORγ, 15 nM RORc-LBD, 200 nM SRC1 peptide, 4° C. overnight, tested form: hydrochloride, listed as Example 6 (hydrochloride)): < 0.1 µM

CCS(=N)(=O)c1ccc(CNC(=O)c2cc3c(s2)[C@H](C(C)C)N(C[C@H]2CC[C@H](C(F)(F)F)CC2)C3)nc1 (single isomer, unassigned)
EC50 (read-out: Value of the concentration required for 50% inhibition (EC50) of RORγ, 15 nM RORc-LBD, 200 nM SRC1 peptide, 4° C. overnight, tested form: HCl): < 0.1 µM | EC50 [1]: < 0.1 µM
